The values below come from US11110149B2, “Method for predicting and monitoring the efficacy of low-dose IL-2 and hydroxychloroquine therapy in autoimmune diseases and its long-term use in autoimmune-related conditions” (KSL BIOMEDICAL INC., priority 2019, dated 2021).

This data set concerns patients with active SLE. The settings on record: HCZ 200 mg to 400 mg per day.

For the molecule `CCN(CCO)CCCC(C)Nc1ccnc2cc(Cl)ccc12` (stereo not shown) [hydroxychloroquine], the “Side effects during the HCZ protocol” value is on record as “No obvious side effects”.
